This is an account of results in ChEMBL document CHEMBL4834454, “Rational design of cannabinoid type-1 receptor allosteric modulators: Org27569 and PSNCBAM-1 hybrids” (Bioorg Med Chem, 2021).

Protein sequences, listed by entry. Tags and fused reporters are not part of them.
UniProt P21554, whole entry: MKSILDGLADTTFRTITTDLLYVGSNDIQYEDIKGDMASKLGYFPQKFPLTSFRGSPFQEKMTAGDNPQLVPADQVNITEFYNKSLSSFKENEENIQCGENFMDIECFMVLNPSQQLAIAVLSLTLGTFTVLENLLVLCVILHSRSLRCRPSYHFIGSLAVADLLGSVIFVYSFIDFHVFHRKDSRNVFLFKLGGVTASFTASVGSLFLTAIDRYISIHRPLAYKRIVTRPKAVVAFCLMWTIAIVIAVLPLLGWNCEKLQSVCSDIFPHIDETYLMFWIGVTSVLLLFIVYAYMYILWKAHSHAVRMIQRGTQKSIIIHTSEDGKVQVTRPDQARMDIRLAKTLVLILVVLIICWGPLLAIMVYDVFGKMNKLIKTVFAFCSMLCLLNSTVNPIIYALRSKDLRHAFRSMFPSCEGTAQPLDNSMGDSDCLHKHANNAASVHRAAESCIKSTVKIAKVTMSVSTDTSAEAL

Broadly, the Kb is the equilibrium dissociation constant of an antagonist, usually derived from a functional assay. By inhibition is commonly meant the relative decrease from the control value, in per cent.

Each structure is given as a SMILES string. The source made the active and inactive calls. The rule behind the calls is not given here.

Assay [1] addresses T1, Cannabinoid receptor 1 (Homo sapiens, UniProt P21554). Kind of assay: Allosteric antagonist activity at human CB1 receptor expressed in HEK293 cell membrane assessed as inhibition of CP55940-stimulated [35S]GTPgammaS binding incubated for 60 mins by [35S]GTP-gammaS binding assay. The format is functional, cell membranes. As to conditions: filed as allosteric antagonist.
Assay [2] addresses T1, Cannabinoid receptor 1. Kind of assay: Incomplete insurmountable allosteric antagonist activity at human CB1 receptor expressed in HEK293 cell membrane assessed as inhibition of CP55940-stimulated [35S]GTPgammaS binding at 100 uM incubated for 60 mins by [35S]GTP-gammaS binding assay. It is filed as functional, cell membranes. Background: GTPγS resists hydrolysis and so accumulates on activated G proteins.

The target in assay [3] is T1, Cannabinoid receptor 1. Kind of assay: Incomplete insurmountable allosteric antagonist activity at human CB1 receptor expressed in CHO-RD-HGA16 cells overexpressing Galpha16 assessed as inhibition of CP55940-stimulated calcium mobilization preincubated for 15 mins followed by agonist addition and measured every 1 sec for 90 secs by Calcium-3 dye based FLIPR assay relative to control. As to conditions: time 990.0 sec. It is filed as functional, cell-based. In general terms: A change in cytosolic calcium serves as a functional read-out for many receptors and channels.

Assay [4] has as its target T1, Cannabinoid receptor 1. Put plainly: Incomplete insurmountable allosteric antagonist activity at human CB1 receptor expressed in HEK293 cell membrane assessed as inhibition of CP55940-stimulated [35S]GTPgammaS binding incubated for 60 mins by [35S]GTP-gammaS binding assay relative to control. It is filed as functional, cell membranes. As to conditions: filed as allosteric antagonist.

As for `O=C(NCCc1ccc(N2CCCCC2)cc1)Nc1ccc(Cl)cc1`, the Kb at Cannabinoid receptor 1 [1] was 38 µM. In addition, at Cannabinoid receptor 1 [2], the outcome was inactive. The inhibition is 26.4% on Cannabinoid receptor 1 [3] and 64.6% at Cannabinoid receptor 1 [4].
